Molecular target: T1, hMGMT (human O6-methylguanine-DNA-methyltransferase) (Homo sapiens, UniProt P16455)
T1 sequence (P16455 1-207): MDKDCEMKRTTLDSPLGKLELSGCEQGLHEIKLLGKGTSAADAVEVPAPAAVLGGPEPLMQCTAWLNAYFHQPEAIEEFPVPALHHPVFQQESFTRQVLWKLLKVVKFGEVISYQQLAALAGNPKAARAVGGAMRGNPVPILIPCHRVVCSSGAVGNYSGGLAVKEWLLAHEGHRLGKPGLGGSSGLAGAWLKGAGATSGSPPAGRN
Experiment: FRET DNA nanoswitch repair assay with hMGMT
Type: biochemical

Q: Nc1nc(OCc2ccccc2)c2[nH]cnc2n1 [O6-BG, O^6-Benzylguanine] was tested. Which IC50 did it give?
A: 3.5 ± 2 µM
